Measured values from patent US20210220370A1, “SELECTIVE HDAC8 INHIBITORS AND THEIR USES” (HOCHSCHULE DARMSTADT, priority 2015, published 2021).

Chains of the proteins cited; added tags and fusions are not shown. Lines headed by an entry give the natural chain unless they say otherwise; changes in a name come on top.
UniProt P56524: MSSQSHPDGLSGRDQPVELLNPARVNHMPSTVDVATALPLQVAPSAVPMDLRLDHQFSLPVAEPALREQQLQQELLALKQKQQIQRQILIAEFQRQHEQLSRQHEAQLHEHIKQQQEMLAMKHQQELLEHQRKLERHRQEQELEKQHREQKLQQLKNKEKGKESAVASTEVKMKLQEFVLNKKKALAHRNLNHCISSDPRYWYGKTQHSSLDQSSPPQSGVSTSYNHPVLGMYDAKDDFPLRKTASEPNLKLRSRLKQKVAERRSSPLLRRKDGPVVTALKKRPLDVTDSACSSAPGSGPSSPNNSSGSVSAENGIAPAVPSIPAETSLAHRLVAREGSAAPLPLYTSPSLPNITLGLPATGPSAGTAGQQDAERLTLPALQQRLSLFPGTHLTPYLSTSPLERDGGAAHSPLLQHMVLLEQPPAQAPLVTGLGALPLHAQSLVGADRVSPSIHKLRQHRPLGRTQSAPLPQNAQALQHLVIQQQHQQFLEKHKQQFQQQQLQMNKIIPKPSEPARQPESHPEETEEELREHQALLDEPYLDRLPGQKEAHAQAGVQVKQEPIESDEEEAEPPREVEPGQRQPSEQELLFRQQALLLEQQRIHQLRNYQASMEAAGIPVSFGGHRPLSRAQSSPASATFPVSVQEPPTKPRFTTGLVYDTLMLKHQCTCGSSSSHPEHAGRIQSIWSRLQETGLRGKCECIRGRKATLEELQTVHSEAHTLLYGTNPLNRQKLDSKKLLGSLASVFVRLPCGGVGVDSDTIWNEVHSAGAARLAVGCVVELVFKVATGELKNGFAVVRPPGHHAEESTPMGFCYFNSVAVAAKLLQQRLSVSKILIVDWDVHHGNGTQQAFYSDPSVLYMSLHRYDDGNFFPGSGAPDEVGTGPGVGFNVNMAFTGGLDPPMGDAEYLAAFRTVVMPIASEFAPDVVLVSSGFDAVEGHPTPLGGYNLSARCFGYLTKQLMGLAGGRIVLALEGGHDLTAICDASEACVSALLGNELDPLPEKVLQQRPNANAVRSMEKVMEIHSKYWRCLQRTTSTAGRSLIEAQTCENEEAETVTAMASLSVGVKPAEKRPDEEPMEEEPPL

Molecular target: HDAC4 (Homo sapiens, UniProt P56524)
Assay type: biochemical
Details: Table 1

COc1ccc(Cn2ccc3ccc(C(=O)NO)cc32)cc1 [Compound 6, PCI-34051, reference compound]
IC50: 10 ± 1 µM
